# In PubChem BioAssay AID651823 (Broad Institute, 2012):
# Amino acid sequences for entries named in this document (tags omitted).
# UniProt Q14145, whole entry: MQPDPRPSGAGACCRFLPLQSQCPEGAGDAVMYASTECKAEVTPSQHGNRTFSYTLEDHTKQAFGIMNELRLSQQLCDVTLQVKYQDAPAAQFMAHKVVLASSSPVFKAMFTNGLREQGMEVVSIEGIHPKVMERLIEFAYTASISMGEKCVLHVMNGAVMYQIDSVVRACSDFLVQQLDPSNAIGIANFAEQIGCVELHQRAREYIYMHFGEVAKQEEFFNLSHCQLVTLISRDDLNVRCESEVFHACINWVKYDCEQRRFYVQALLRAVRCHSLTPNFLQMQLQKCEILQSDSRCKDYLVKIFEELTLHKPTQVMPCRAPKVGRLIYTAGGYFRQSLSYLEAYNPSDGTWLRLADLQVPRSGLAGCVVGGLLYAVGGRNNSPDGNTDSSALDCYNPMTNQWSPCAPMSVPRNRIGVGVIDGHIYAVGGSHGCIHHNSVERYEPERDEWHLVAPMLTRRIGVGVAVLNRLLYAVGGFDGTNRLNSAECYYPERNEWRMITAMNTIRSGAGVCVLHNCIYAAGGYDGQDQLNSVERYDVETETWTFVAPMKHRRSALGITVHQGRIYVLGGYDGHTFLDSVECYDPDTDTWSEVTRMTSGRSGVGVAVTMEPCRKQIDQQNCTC
# The list shows a part of the results, in another mix than the full data. The source made the active and inactive calls. Cut-off read from the data, not from the text of the source: active = max delta Tm above about 0.48 degrees C; inactive = the rest.
# Molecular target: Kelch-like ECH-associated protein 1 (Homo sapiens) (UniProt Q14145)
# Experiment: Keap1 Kelch domain binders by thermal stabilisation, dose response, biophysical, thermal shift, RT-PCR instrument, cherry-pick (AID 651823)
# Settings: at 50 µM, hits give high values
compound,measurement,value
CCCN1CCC(Nc2cc(OC)cc(OC)c2)CC1,max delta Tm,inactive: -0.03 °C
